We go through 1 compound from US20130096141A1, “BICYCLIC HETEROCYCLE DERIVATIVES AND METHODS OF USE THEREOF” (priority 2010, published 2013).

By UniProt entry, the sequences of proteins in these tests, tags left out.
UniProt Q8TDV5, whole entry: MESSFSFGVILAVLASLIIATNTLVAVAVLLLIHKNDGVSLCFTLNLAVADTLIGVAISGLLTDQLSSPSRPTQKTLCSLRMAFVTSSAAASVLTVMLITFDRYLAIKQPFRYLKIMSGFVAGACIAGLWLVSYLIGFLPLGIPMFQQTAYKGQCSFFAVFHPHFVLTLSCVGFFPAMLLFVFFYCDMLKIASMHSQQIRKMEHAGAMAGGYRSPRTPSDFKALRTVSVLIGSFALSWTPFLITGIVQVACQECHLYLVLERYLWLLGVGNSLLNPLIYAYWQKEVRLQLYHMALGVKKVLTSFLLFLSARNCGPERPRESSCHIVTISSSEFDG

This assay has as its target GPR119 receptor (Homo sapiens, UniProt Q8TDV5). Briefly: cAMP assay in cells transfected with the GPR119 receptor (human). Particulars: read-out: h-cAMP EC50, increase in intracellular cAMP. The protocol:
The activity of these compounds may be assayed in cells transfected the GPR119 receptor (human, mouse, rat or monkey). Incubation with the above compounds results in an increase in intracellular cAMP, from which an EC50 value may be calculated. Ki values for compounds at this receptor can be determined by employing a radio-labeled agonist. In vivo activity can be determined by conducting an oral glucose-tolerance test in an appropriate species, such as mouse.
In general terms: Changes in cAMP serve as a functional read-out for many G protein-coupled receptors.

One may read the EC50 as the concentration at which the effect is half-maximal. For the compound `Cn1cc(-c2ccc(C#N)cc2Cl)c2ncnc(OC3C4COCC3CN(C(=O)OC3(C)CC3)C4)c21` (stereo not shown), the EC50 was 3.2 nM.
